From ChEMBL document CHEMBL1143182, “Design and synthesis of DPP-IV inhibitors lacking the electrophilic nitrile group” (Bioorg Med Chem, 2008)

The chains behind the UniProt entries cited, without tags or fusion partners. Where a name states a change or a piece, a line headed by the entry shows the natural chain unless it says otherwise.
UniProt P14740: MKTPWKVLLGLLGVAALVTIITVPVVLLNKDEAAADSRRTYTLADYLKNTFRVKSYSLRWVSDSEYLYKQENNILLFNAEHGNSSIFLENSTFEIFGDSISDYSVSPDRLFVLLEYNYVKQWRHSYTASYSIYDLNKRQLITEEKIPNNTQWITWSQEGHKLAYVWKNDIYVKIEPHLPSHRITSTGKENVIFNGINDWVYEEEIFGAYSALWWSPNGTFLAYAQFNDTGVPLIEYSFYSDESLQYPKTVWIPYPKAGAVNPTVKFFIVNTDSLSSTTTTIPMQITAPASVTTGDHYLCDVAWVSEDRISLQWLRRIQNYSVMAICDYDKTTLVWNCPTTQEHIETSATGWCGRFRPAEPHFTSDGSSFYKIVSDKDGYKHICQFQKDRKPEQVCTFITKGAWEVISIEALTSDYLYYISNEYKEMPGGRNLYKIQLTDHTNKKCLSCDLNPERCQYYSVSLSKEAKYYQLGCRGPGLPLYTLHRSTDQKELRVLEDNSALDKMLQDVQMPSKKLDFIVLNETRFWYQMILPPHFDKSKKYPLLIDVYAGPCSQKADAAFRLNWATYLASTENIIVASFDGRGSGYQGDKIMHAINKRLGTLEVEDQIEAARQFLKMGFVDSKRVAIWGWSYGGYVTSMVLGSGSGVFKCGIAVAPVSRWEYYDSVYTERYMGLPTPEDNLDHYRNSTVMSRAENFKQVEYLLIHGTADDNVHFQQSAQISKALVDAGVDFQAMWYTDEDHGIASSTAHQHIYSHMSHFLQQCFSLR

Molecular target: Dipeptidyl peptidase 4 (Rattus norvegicus, UniProt P14740)
Experiment: Inhibition of DPP4 in rat plasma by fluorescence assay
Assay type: cell-free
Method in brief: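 Rat plasma (50 µL) with Gly-Pro-AMC (25 µL of 120 µM), water and test compound at various concentrations in 100 µL total, 37 °C for 15 min. Fluorescence read at ex 355/em 460 nm. Percent inhibition relative to solvent alone; IC50 by logistic regression.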

IC50: 0.061 µM
Compound: Cc1csc(N2CCN(C(=O)[C@@H]3CN[C@H](C(=O)N4CCCC4)C3)CC2)n1
